pIC50: −log10 of the molar value.
Experiments:
NaV1.5 [1] = biological target: T1, NaV1.5 (Homo sapiens, UniProt Q14524); assay: IonWorks Quattro NaV1.5 screen (AstraZeneca, Q); details: −log10 of IC50 in Molar, Hill n = 1, 0.0 = pIC50 ≤ 0 fitted
[2] = Plasma concentration (Cmax) during the TQT study, total and calculated free; details: Cmax 50mg/kg
hERG [3] = biological target: T2, hERG (Homo sapiens, UniProt Q12809); assay: cell-based
NaV1.5 [4] = biological target: T1, NaV1.5; assay: Second IonWorks Quattro NaV1.5 screen (GSK, Q2)
hERG [5] = biological target: T2, hERG; assay: IonWorks Quattro hERG screen (AstraZeneca, Q)

Sequences of proteins named here, by UniProt entry; tags and fusion partners are left off. A change or cut given only in a name is not applied to a line headed by its entry.
UniProt Q14524, whole entry: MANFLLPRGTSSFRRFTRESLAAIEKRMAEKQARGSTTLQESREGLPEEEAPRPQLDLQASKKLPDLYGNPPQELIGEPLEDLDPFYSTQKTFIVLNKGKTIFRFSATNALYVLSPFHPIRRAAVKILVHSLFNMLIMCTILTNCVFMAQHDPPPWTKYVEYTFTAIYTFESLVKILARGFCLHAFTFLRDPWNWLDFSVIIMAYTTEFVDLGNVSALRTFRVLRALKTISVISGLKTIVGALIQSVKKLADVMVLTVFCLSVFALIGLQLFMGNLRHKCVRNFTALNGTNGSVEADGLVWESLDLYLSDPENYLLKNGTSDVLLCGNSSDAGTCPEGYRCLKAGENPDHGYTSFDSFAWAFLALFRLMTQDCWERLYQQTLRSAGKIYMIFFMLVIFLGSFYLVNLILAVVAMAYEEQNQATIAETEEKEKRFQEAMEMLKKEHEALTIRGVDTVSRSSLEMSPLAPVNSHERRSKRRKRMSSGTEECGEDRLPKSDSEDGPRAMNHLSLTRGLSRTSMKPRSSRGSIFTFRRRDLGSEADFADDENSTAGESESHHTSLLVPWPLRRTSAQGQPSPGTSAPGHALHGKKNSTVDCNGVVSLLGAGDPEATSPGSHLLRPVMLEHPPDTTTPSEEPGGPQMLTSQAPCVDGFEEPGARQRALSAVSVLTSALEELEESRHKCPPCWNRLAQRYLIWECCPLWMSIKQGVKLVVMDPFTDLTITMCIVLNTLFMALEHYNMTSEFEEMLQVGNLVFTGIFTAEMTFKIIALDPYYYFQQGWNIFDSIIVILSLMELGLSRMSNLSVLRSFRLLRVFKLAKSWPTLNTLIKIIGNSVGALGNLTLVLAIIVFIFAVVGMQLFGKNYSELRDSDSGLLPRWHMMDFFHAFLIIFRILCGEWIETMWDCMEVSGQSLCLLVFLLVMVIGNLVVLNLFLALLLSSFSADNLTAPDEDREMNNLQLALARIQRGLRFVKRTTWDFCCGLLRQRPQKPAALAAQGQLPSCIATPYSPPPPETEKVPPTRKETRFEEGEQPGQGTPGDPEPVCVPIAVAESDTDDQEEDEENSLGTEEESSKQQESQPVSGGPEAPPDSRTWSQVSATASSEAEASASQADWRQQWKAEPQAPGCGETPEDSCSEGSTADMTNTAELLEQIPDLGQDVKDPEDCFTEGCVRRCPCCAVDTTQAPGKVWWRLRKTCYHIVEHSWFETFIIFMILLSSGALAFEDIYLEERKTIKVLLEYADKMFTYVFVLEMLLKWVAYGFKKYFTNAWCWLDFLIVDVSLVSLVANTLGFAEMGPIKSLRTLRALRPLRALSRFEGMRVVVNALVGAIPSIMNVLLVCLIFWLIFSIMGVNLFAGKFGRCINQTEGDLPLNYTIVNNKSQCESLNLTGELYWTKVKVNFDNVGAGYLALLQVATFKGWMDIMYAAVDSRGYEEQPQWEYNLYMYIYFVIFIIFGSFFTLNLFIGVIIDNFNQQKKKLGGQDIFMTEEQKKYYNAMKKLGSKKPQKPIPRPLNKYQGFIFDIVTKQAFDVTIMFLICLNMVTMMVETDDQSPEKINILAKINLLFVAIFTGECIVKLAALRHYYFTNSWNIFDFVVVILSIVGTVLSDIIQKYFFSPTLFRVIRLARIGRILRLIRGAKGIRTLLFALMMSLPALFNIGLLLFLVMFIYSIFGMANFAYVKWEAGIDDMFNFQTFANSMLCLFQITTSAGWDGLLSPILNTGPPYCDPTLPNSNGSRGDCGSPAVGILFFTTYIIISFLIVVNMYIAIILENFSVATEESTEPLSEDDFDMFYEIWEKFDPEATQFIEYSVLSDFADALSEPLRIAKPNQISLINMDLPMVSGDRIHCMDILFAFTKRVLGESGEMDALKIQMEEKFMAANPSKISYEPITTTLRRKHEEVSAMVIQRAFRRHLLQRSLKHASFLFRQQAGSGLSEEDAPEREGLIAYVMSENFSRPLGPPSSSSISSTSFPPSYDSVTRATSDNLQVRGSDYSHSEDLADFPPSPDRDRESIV
UniProt Q12809: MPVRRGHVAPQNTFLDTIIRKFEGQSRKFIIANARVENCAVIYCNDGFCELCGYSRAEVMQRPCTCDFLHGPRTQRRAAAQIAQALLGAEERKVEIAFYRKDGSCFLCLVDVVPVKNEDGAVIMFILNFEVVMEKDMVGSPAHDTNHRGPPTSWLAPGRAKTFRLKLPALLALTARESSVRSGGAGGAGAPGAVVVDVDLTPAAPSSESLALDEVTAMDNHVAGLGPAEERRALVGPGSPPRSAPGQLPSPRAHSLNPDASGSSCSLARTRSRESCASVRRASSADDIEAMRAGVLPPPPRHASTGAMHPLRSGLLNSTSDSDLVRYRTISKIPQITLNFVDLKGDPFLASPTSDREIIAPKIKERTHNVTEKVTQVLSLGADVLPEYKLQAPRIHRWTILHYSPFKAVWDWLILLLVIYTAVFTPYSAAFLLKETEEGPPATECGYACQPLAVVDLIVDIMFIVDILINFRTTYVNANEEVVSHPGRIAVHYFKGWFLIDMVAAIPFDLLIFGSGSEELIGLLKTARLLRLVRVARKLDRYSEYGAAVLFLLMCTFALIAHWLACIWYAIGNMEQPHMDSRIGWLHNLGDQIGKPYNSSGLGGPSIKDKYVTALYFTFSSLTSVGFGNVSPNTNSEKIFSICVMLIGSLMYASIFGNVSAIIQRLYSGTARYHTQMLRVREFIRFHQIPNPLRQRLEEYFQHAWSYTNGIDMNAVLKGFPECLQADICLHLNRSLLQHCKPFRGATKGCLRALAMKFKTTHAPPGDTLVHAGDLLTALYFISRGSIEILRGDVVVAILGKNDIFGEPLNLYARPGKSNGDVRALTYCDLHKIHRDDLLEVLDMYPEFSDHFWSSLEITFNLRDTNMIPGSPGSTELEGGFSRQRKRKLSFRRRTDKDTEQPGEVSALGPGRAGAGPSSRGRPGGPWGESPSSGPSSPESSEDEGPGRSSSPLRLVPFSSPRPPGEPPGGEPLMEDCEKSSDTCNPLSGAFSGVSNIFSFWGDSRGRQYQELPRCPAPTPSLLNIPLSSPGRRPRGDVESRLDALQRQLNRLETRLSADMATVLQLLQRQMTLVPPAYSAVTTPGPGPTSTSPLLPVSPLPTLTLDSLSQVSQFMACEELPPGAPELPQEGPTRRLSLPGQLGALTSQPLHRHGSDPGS

Which “NaV1.5 pIC50 (Q)” value (NaV1.5 [1]) does the source give for `Cc1nc(Nc2ncc(C(=O)Nc3c(C)cccc3Cl)s2)cc(N2CCN(CCO)CC2)n1.O` [Dasatinib] here?
The value was 4.0.

Which “Cmax FREE” value [2] does the source give for `CO[C@H]1C[C@@H]2CC[C@@H](C)[C@@](O)(O2)C(=O)C(=O)N2CCCC[C@H]2C(=O)O[C@H]([C@H](C)C[C@@H]2CC[C@@H](OCCO)[C@H](OC)C2)CC(=O)[C@H](C)/C=C(\C)[C@@H](O)[C@@H](OC)C(=O)[C@H](C)C[C@H](C)/C=C/C=C/C=C/1C` [Everolimus] here?
Its value is 68.1052 nM.

With `Cc1c(O)cccc1C(=O)N[C@@H](CSc1ccccc1)[C@H](O)CN1C[C@H]2CCCC[C@H]2C[C@H]1C(=O)NC(C)(C)C` [Nelfinavir] as the molecule, how does the pIC50 (hERG [3]) read?
The pIC50 was 3.30.

And the “NaV1.5 pIC50 (Q2)” value (NaV1.5 [4])?
The value was 3.3.

With `N[C@@H](CC(=O)N1CCn2c(nnc2C(F)(F)F)C1)Cc1cc(F)c(F)cc1F` [Sitagliptin] as the molecule, how does the pIC50 (hERG [5]) read?
The pIC50 was 3.00.

With `CCN(CC)CCNC(=O)c1c(C)[nH]c(/C=C2\C(=O)Nc3ccc(F)cc32)c1C` [Sunitinib] as the molecule, how does the “NaV1.5 pIC50 (Q2)” value (NaV1.5 [4]) read?
The value was 4.4.
